Assay results as given in patent publication US5728829A, “Process of preparing benzodiazepine compounds useful as antagonists of CCK or of gastrine” (Ferring-Research Limited, priority 1993, dated 1998).

Test system: pentagastrin-stimulated gastric acid secretion
Assay: Measurement of inhibition of pentagastrin-stimulated gastric acid secretion in rat
Settings: intravenous

Cc1cccc(NC(=O)N[C@@H]2N=C(c3ccccc3)c3ccccc3N(C)C2=O)c1
% Inhibition (maximum inhibition of gastric acid secretion) (at 0.3 μmol/kg, mean for 3-5 animals): 28%
ED50 (dose reducing secreted gastric acid to 50% of the maximum level) (table 3, "Relative ED50 values", anaesthetised rat, pentagastrin 15 μg/Kg/hr): 4.2 µmol/kg
